This note sets out measurements from ChEMBL document CHEMBL1811876, “Antitumor agents 288: design, synthesis, SAR, and biological studies of novel heteroatom-incorporated antofine and cryptopleurine analogues as potent and selective antitumor agents” (J Med Chem, 2011).

The data set has as its system HUVEC. The experiment in a line: Toxicity against HUVEC. The data set is classed as cell-based. Particulars: human.

Molecules are shown by their SMILES.

Broadly, the GI50 is the concentration that inhibits growth by half. Low readings indicate more potent growth inhibition, high ones less potent growth inhibition. With `COc1ccc2c3c(c4cc(OC)c(OC)cc4c2c1)C[C@H]1CCCCN1C3` [CRYPTOPLEURINE], it took 11 nM to inhibit growth by half (GI50). This counts as double-digit nanomolar.
